These results are taken from patent US20240342137A1 (priority 2023, published 2024).

Series [1] relates to alpha-2 adrenoceptors. As to conditions: cited from earlier work.
For series [2], the target named is T1, alpha-2 adrenoceptors.
T1 construct: rows headed: Alpha-2 Ki; other: [3H]clonidine displacement, brain membrane; other: alpha-2; lower sensitivity compared to atipamezole; other: alpha-2, vs atipamezole
Particulars: cited from earlier work.

As usually defined, the Ki is the dissociation constant of the complex between target and ligand, obtained from inhibition or displacement. The term solubility denotes how much of the substance goes into solution per volume.

Regarding `COC(=O)[C@@H]1[C@H]2C[C@H]3c4[nH]c5ccccc5c4CCN3C[C@@H]2CC[C@@H]1O` [Yohimbine], in the series with alpha-2 adrenoceptors [1], the “Alpha-2toAlpha-2 ratio (specificity)” value is given as 40. In addition, at alpha-2 adrenoceptors [2], the inhibitory constant (Ki) is 130 nM. Moreover, the IC50 with alpha-2 adrenoceptors [2] (read-out: half-maximal inhibitory concentration) is 130 nM.

For `CCC1(c2c[nH]cn2)Cc2ccccc2C1.Cl` [atipamezole HCl, 4-(2-ethyl-2,3-dihydro-1H-inden-2-yl)-1 H-imidazole hydrochloride], the solubility in the series “physchem” was ~5000 µg/mL.
